Measurements taken from ChEMBL document CHEMBL6096675 (J Med Chem, 2025).

Chains of the proteins cited; added tags and fusions are not shown.
UniProt P51531, whole entry, looked up: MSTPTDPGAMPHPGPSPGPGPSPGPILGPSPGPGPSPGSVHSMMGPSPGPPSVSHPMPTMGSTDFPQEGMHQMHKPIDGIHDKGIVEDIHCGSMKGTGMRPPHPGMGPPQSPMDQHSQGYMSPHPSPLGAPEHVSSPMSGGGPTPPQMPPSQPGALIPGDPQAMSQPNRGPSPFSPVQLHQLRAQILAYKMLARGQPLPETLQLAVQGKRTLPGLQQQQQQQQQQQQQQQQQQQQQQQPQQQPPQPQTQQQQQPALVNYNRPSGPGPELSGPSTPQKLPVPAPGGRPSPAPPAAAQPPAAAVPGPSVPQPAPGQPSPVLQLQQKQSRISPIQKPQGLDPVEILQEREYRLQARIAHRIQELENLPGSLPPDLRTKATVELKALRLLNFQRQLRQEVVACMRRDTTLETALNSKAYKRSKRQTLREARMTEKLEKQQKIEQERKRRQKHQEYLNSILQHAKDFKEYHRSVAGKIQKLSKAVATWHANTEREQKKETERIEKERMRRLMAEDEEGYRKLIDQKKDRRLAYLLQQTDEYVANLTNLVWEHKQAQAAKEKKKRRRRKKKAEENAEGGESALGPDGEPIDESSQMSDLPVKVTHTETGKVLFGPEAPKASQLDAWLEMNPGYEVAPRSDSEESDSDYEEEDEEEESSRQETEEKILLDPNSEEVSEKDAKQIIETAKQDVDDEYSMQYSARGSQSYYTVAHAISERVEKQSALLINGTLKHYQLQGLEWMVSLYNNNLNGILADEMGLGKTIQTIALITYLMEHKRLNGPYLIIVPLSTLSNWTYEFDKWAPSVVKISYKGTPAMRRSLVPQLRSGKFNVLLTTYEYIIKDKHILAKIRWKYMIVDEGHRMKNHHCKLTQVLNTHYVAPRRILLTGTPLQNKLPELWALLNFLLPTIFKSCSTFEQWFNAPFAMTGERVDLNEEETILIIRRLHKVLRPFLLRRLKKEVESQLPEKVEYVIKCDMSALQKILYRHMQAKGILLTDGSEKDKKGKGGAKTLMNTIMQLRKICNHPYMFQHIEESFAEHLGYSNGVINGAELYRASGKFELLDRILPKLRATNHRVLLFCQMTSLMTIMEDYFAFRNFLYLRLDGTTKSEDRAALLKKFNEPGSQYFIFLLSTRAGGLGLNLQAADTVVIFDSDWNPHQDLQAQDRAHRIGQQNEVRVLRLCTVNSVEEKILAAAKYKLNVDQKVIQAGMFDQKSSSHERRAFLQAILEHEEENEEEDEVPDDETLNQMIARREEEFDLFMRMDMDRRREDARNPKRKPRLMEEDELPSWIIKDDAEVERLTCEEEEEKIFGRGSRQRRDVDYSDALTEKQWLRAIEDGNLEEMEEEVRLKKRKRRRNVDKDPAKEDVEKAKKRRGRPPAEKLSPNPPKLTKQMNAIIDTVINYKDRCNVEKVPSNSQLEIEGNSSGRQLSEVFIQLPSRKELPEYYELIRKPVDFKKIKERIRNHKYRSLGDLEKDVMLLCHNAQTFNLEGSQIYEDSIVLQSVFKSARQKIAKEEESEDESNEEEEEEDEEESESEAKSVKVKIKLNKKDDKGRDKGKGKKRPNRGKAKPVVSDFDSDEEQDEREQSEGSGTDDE
UniProt P40337, whole entry, looked up: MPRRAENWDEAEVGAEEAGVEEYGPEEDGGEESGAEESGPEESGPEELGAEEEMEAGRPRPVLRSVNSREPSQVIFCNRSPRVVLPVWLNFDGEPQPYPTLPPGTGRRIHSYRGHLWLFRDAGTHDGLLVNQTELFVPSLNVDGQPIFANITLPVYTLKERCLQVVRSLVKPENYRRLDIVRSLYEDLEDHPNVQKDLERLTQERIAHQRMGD

Target: von Hippel-Lindau disease tumor suppressor/SWI/SNF-related matrix-associated actin-dependent regulator of chromatin subfamily A member 2 (Homo sapiens, UniProt P51531+P40337)
Test: PROTAC activity at SMARCA2/VHL1 in human HeLa cells assessed as protein degradation after 2 hrs by Nano-Glo HiBiT lytic detection assay
Format: cell-based

- Activity: inactive
Compound: Cc1ncsc1-c1ccc([C@H](CN2CCOCC2)NC(=O)[C@@H]2C[C@H](O)CN2C(=O)[C@@H](n2cc([C@H]3CC[C@H](CN4CCC(c5ccc6c(c5)C5(CCCCC5)c5nc(=O)c7c(Cl)cccc7n5-6)CC4)CC3)nn2)C(C)(C)C)cc1

Activity calls are given as the source filed them. The rule behind the calls is not given here.
